# From patent publication EP0714402B9, “POLYMER MODIFICATION” (PolyMASC Pharmaceuticals plc, priority 1993, dated 1995)
# Test: phase partitioning after 2h coupling, comparison of PEGylation methods
# Conditions: 2h. coupling period, activated PEG:lysine 305:1
substance,measurement,value
Phenylchloroformate,PARTITION COEFFICIENT,4.92±0.02
